From US20080023859A1, “Glycopeptides and Temperature-Responsive Micelles” (Toagosei Co., Ltd., priority 2003, published 2008)

Key:
[1] = Measurement of micelle formation by dynamic light scattering (particle diameter); type: physicochemical; details: for temperature at which micelle/aggregate was formed / micelle diameter: DLS in solution
[2] = Molecule aggregation of gas-liquid interfacial monolayer (π-A curves, LB film-forming apparatus); type: physicochemical; details: gas-liquid interface monolayer, temperature increased to 45° C.

Substance	temperature at which micelle/aggregate was formed [1] [°C]	micelle diameter [1] [nm]	micelle diameter ([1]; at 25° C. or more) [μm]	repetition of micelle formation on temperature cycling ([1]; temperature varied between 15° C. and 35° C. for 15 minutes, repeated, diameters measured at 15° C. and 35° C.)	molecular occupancy of π-A curve [2]
Ac-Val-Pro-Gly-Val-Gly-Val-Pro-Gly-Val-Gly-pAP-Man [Compound 8]	≥ 35	–	–	–	–
NH2-Glu(pAP-Man)-Val-Pro-Gly-Val-Gly-Val-Pro-Gly-Val-Gly-pAP-Man [Compound 4]	–	400	–	–	–
NH2-Val-Pro-Gly-Val-Gly-Val-Pro-Gly-Val-Gly-pAP-Man [Compound 1]	≥ 25	–	2	at least five times	became smaller
